# scFv variants of Ab-14 (heavy chain) against a SARS-CoV-2 spike peptide

Binding partner: SARS-CoV-2 spike HR2 peptide, sequence PDVDLGDISGINAS.

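The parent was found by panning a naive human phage display library on the peptide. In library AAYL49, one, two or three CDR residues were substituted; doubles and triples were drawn at random. In AlphaSeq, yeast of one mating type display the scFv and yeast of the other type display the target. Binding brings cells together so that they mate, and sequencing counts the barcode pairs among the diploids. The ratio of observed to expected reads was calibrated, replicate by replicate, on BCL2-family standards whose Kd was known from biolayer interferometry. There are three technical replicates.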

Parent: Ab-14, a human scFv built as VH, the linker GGGGSGGGGSGGGGS, VL. Only the CDRs of the heavy chain vary.
VH: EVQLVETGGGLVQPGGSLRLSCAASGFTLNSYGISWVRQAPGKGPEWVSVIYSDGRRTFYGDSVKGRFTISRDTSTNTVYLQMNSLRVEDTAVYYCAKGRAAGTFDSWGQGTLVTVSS
VL: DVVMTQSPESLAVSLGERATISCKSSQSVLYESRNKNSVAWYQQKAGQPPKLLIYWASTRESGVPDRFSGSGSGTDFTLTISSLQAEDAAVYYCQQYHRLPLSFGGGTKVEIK

The parent's heavy chain CDRs are GFTLNSYGIS, VIYSDGRRTFYGDSVK, GRAAGTFDS; each variant's own CDRs replace them letter for letter.
The read-out is the apparent dissociation constant on a log10 scale (nM): the lower, the stronger.
The mean shown is taken over the replicates in which the pair was detected.
A pair that was not seen in that replicate is written "ND"; this usually means weak binding, but a binder can also be missed.

CDR-H1 | CDR-H2 | CDR-H3 | replicates, log10 nM | mean, log10 nM | signal with controls
GFTLNSYGTS | VWYSDGRRTFYGDSVK | GRRAGTFDS | ND / 2.57 / ND | 2.57 | 1 of 9 (2.82)
GFTHNSYGCS | VIYSDGRRTFYGDSVK | GRAAGLFDS | ND / ND / ND | ND | 0 of 9
NFTLNSYGIS | VIYSDGRRTFYGDSVK | GNAAGTFDS | 0.81 / 0.91 / 0.67 | 0.80 | 1 of 9 (2.45)
GFTLNDYGIS | VIYSDGRRTFYGDSVK | GRAAGTFDS | 0.49 / 0.70 / 0.68 | 0.62 | 0 of 9
GWTLNSQGIS | VIRSDGRRTFYGDSVK | GRAAGTFDS | ND / ND / 4.45 | 4.45 | 1 of 9 (4.94)
GFTLNSYGIW | VIYSDGRRTFYGDSVK | RRARGTFDS | ND / ND / ND | ND | 1 of 9 (3.79)
GFTLFSYGIS | VIYSDGNRTFYGDSKK | GRAAGTFDS | ND / ND / ND | ND | 1 of 9 (4.38)
GFMLNSPGIS | VIYSDGRRTFYGDSVK | GRAAGTNDS | ND / 2.99 / ND | 2.99 | 0 of 9
GFTLNSYGIS | VSYSEGRRTFYGDSVK | GRAAKTFDS | ND / ND / ND | ND | 0 of 9
GFMLNSYGIS | VIYSDGRRTFYGDSVK | GYQAGTFDS | 1.08 / 1.05 / 1.04 | 1.06 | 0 of 9
GFTLNSYGIS | VIYSDGRRTFYGDSVL | MRAAGTGDS | 1.28 / 1.83 / 1.56 | 1.56 | 0 of 9
GFTLNSYGIE | VIYSDGRRTFYGDPVG | GRAAGTFDS | 6.19 / ND / 4.33 | 5.26 | 3 of 9 (4.39)
GFTLNSYGIS | VIYSDGRRTFSGGSVK | GREAGTFDS | 2.84 / 2.70 / 2.65 | 2.73 | 2 of 9 (3.79)
GFVLNSYGIS | VIYSHGRRTCYGDSVK | GRAAGTFDS | ND / ND / ND | ND | 2 of 9 (4.03)
GFTLNSYGIS | VIISDGRRLFKGDSVK | GRAAGTFDS | ND / ND / ND | ND | 0 of 9
GFCLNSYGIS | VIYSDGDRTFYGDSVK | GRAATTFDS | 2.18 / 2.19 / 2.67 | 2.35 | 2 of 9 (4.30)
GFTLYSYGIF | VIYSDGRFTFYGDSVK | GRAAGTFDS | ND / 3.26 / ND | 3.26 | 1 of 9 (3.89)
GFTLNSYGIK | VIYSDGRRTFYGDSVK | QRAAGTFDS | 2.98 / ND / ND | 2.98 | 3 of 9 (4.45)
IFTLNSYGIS | VIYSDGRRTWYGDSVK | GRAASTFDS | ND / ND / ND | ND | 0 of 9
GFTLISYGIS | CIYSDGRETFYGDSVK | GRAAGTFDS | ND / ND / ND | ND | 0 of 9
QFTLNSYGIS | VIYSDGRRRFYGDSVK | GRAEGTFDS | ND / ND / ND | ND | 0 of 9
GFTLHSYGIS | VIYSDGRRTKYGDSVK | GRAAGTFDS | ND / 5.31 / ND | 5.31 | 3 of 9 (4.63)
GFTLNSYGIS | VAYSDGRRTFQGDSVK | GRMAGTFDS | ND / ND / ND | ND | 2 of 9 (3.40)
GFWLNSYGIS | VIYLDGRRTFYGDSVK | IRAAGTFDS | 5.03 / ND / ND | 5.03 | 3 of 9 (4.21)
GFTLNSYGIS | VGYSDGRRTFYGDSVK | GRNAGTMDS | ND / ND / ND | ND | 0 of 9
GFTLNSYGIS | VIYSDGRRTFYGDSVK | GAAAGTFDS | 0.42 / 0.76 / 0.68 | 0.62 | 2 of 9 (4.12)
GFRLNSYGIV | VIYSDGRRTFYGDSVK | GGAAGTFDS | ND / 4.21 / ND | 4.21 | 0 of 9
GFTLNSYGIS | VIYSDGRRTFYGDSAK | GRAAFTFDY | ND / ND / 2.81 | 2.81 | 0 of 9
PFTLNSYGIS | VIYSDGRSTFYGDSVK | GRAAGTFDS | ND / ND / 3.49 | 3.49 | 0 of 9
GFTLNSYGAS | VIYSDGRRTFYGDVVK | GRKAGTFDS | ND / ND / ND | ND | 0 of 9
GFTLNSYGIS | VKYSDFRRTFYGDSMK | GRAAGTFDS | ND / 2.58 / ND | 2.58 | 1 of 9 (3.94)
LFTRNSYGIS | VIYSDGRRTFYGDSVK | GRAAGTFDF | ND / ND / ND | ND | 1 of 9 (4.32)
GFTLNSYGIS | FIYSDARRTPYGDSVK | GRAAGTFDS | 3.60 / ND / ND | 3.60 | 0 of 9
GFTLNSYGIS | VIYSDGRRTHYFDSVK | GRAAGTFDS | ND / ND / ND | ND | 1 of 9 (3.06)
GFTLWSYGIS | VQYSDARRTFYGDSVK | GRAAGTFDS | ND / ND / 3.03 | 3.03 | 1 of 9 (3.72)

4 of these entries, quoted again:

{"CDR-H1": "GFTLYSYGIF", "CDR-H2": "VIYSDGRFTFYGDSVK", "CDR-H3": "GRAAGTFDS", "replicates, log10 nM": "ND / 3.26 / ND", "mean, log10 nM": "3.26", "signal with controls": "1 of 9 (3.89)"}
{"CDR-H1": "GWTLNSQGIS", "CDR-H2": "VIRSDGRRTFYGDSVK", "CDR-H3": "GRAAGTFDS", "replicates, log10 nM": "ND / ND / 4.45", "mean, log10 nM": "4.45", "signal with controls": "1 of 9 (4.94)"}
{"CDR-H1": "GFTLISYGIS", "CDR-H2": "CIYSDGRETFYGDSVK", "CDR-H3": "GRAAGTFDS", "replicates, log10 nM": "ND / ND / ND", "mean, log10 nM": "ND", "signal with controls": "0 of 9"}
{"CDR-H1": "GFTLNSYGTS", "CDR-H2": "VWYSDGRRTFYGDSVK", "CDR-H3": "GRRAGTFDS", "replicates, log10 nM": "ND / 2.57 / ND", "mean, log10 nM": "2.57", "signal with controls": "1 of 9 (2.82)"}

Parent in this assay: reference entry 0.65, copy in this library 4.11 (one replicate of three).
Nonspecific signal, from three strains lacking the peptide, appeared in 15% of pairings of library AAYL49, centred on 4.06 (5% of these signals below 2.83); values are not corrected for it. For each scFv, signals with the empty controls are counted beside the result, with their mean in brackets.

Values reported by Engelhart et al. 2022, doi:10.1038/s41597-022-01779-4 (FLAb copy).